Columns and labels:
Lewis Lung Carcinoma = test: Lewis lung carcinoma, s.c. implant, IP treatment; format: in vivo, mice
B16 Melanoma = test: s.c. B16 melanoma; format: in vivo, mice

Measured: Tumor-free survivors

NP(=O)(O)N(CCCl)CCCl
0/10: Lewis Lung Carcinoma; 30 mg/kg/dose IP, Day 2 Q5 min × 7 | Lewis Lung Carcinoma; 200 mg/kg/dose IP, Day 2 single dose | B16 Melanoma; dosage 30 (mg mg^-1), Day 2 Q5 min × 7 | B16 Melanoma; dosage 200 (mg mg^-1), Day 2 single dose

Reference: patent publication US8664201B2 (priority 2008, dated 2014)
